Test results from PubChem BioAssay AID602261 (Sanford-Burnham Center for Chemical Genomics, 2012).
The entries are a selection whose mix differs from that of the whole data set. Some tests of the compounds listed are not included; inactive here does not mean inactive elsewhere. Activity calls are given as the source filed them.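 Rule for the calls: active = compounds whose normalised, plate-corrected inhibition of enzyme fluorescence in the single-dose primary screen is 50% or more; inactive = the rest.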

Amino acid sequences for entries named in this document (tags omitted).
UniProt P49327, whole entry: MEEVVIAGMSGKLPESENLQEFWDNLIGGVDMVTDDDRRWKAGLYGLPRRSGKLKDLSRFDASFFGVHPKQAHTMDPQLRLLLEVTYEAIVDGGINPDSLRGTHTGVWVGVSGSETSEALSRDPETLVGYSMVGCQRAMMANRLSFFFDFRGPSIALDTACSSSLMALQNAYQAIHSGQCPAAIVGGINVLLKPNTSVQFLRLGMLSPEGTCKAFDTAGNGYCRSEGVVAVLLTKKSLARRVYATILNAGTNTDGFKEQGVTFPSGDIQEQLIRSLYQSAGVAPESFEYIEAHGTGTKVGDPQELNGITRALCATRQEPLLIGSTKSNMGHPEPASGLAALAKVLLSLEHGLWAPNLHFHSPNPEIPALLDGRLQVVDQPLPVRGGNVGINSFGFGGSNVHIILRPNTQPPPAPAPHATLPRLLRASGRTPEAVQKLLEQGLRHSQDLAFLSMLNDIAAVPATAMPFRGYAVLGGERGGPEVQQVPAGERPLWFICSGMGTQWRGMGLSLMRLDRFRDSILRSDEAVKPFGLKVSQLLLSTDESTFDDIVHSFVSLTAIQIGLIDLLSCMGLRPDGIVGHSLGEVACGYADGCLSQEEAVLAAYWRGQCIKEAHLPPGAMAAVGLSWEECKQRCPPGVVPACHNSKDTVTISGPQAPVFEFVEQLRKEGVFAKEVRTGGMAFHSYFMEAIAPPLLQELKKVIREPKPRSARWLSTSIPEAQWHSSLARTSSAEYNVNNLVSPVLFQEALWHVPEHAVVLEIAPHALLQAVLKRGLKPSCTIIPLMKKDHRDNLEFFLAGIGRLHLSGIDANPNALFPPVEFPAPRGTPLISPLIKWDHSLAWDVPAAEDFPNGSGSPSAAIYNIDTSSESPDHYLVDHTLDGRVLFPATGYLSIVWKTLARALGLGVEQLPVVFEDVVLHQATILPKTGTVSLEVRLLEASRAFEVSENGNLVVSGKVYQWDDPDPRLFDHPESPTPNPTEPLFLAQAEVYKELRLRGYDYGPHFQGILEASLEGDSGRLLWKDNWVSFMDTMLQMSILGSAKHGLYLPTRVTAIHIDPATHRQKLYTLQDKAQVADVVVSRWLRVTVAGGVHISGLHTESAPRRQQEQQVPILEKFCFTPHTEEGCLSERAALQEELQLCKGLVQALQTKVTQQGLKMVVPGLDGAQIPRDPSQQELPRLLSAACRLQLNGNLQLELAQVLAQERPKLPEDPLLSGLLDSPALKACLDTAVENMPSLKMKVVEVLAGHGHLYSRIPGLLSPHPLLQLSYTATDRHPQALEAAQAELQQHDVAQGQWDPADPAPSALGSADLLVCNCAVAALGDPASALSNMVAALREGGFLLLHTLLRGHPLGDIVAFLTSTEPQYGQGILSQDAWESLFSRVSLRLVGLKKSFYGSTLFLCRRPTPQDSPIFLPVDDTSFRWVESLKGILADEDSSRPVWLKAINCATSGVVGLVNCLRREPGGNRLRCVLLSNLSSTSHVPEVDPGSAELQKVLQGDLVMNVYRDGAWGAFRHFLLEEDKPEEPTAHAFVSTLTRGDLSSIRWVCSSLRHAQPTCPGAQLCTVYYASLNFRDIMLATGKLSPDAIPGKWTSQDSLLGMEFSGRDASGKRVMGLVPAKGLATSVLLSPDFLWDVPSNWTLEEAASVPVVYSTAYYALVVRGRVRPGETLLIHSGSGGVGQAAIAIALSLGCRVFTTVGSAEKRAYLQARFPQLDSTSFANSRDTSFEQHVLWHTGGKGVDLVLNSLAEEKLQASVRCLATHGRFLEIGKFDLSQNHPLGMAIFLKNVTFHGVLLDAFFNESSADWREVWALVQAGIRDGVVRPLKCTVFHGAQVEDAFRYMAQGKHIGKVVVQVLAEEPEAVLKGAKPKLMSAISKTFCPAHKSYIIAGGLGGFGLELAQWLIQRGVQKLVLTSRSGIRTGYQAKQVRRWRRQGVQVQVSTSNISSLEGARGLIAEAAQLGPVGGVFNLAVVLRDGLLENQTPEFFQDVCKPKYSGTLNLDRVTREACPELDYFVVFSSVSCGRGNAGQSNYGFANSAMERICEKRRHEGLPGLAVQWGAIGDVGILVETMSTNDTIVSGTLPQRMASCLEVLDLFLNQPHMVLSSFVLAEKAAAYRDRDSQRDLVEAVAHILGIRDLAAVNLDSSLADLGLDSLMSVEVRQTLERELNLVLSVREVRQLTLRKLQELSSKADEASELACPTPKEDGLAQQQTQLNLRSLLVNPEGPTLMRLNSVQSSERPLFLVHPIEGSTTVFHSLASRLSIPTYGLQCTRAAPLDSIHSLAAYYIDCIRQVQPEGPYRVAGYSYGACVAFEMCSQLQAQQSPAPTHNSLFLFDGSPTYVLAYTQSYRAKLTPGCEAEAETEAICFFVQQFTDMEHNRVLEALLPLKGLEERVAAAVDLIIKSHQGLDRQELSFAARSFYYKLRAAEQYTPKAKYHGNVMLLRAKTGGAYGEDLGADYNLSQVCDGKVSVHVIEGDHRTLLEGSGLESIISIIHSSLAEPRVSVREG

Biological target: Fatty acid synthase (Homo sapiens) (UniProt P49327)
Test: FAS thioesterase domain inhibitors, primary screen, biochemical, fluorescence intensity, uHTS (AID 602261);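 note: 0% = DMSO with enzyme and 100% = substrate without enzyme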
Details: recombinant FAS-TE, OMFH fluorogenic substrate, fluorescence endpoint; at 15 µM; hits give high values

SMILES	inhibition
O=C(OC1CN2CCC1CC2)C(CO)(c1ccccc1)c1ccccc1 (stereo unspecified)	inactive: -4.3%
COc1ccc(Br)c(C(=O)NCC2(N3CCCCC3)CCCCC2)c1	inactive: -2%
C=C(C)C#CC(O)(C(=O)OC1CCN(C)CC1)c1ccccc1 (stereo unspecified)	inactive: -5.5%
CN(C)c1cccc(C(=O)NCC2(N(C)C)CCCCC2)c1	inactive: -1.7%
CC(C)Oc1ccc(C(=O)NCC2(N(C)C)CCCCC2)cc1	inactive: -4.5%
O=C(OCCN1CCCC1)C(O)(c1ccccc1)c1ccccc1	inactive: -7.6%
CN(C)C1(CNC(=O)c2ccc(Br)cc2)CCCCC1	inactive: -3.8%
COc1cc(C(=O)NCC2(N(C)C)CCCCC2)c([N+](=O)[O-])cc1OC	inactive: -6.8%
COc1cccc(C(=O)NCC2(N3CCCCC3)CCCCC2)c1	inactive: -3.9%
COc1ccc(Cl)cc1C(=O)NCC1(N(C)C)CCCCC1	inactive: -10.7%
O=C(NCC1(N2CCCCC2)CCCCC1)c1cccc(Cl)c1	inactive: -4.6%
Cc1ccccc1C(=O)NCC1(N2CCCCC2)CCCCC1	inactive: -3.8%
CN(C)C1CCCC1OC(=O)C(O)(c1ccccc1)c1ccccc1 (stereo unspecified)	inactive: -6.7%
CN(C)c1ccc(C(=O)NCC2(N(C)C)CCCCC2)cc1	inactive: -0.1%
C=CCN1CCN(CCOC(=O)C(O)(c2ccccc2)c2ccccc2)CC1	inactive: -4.5%
O=C(NCC1(N2CCCCC2)CCCCC1)c1cc(F)c(F)cc1Cl	inactive: -3.9%
Cc1cc(C(=O)NCC2(N3CCCCC3)CCCCC2)ccc1[N+](=O)[O-]	inactive: -1.1%
CCN1CCCC(OC(=O)C2(O)c3ccccc3C=Cc3ccccc32)C1 (stereo unspecified)	inactive: -4.6%
O=C(NCC1(N2CCCCC2)CCCCC1)c1cccc(Br)c1	inactive: -2.4%
COc1ccc(C(=O)NCC2(N(C)C)CCCCC2)cc1	inactive: -4%
O=C(NCC1(N2CCCCC2)CCCCC1)c1cc([N+](=O)[O-])ccc1Cl	inactive: -3.5%
CN1[C@@H]2CC[C@H]1CC(OC(=O)C(O)(c1ccccc1)c1ccccc1)C2 (stereo partly specified)	inactive: -5.5%
CC(C)N1C(=O)CC2(CCN(CCOC(=O)C(O)(c3ccccc3)c3ccccc3)CC2)C1=O	inactive: -1.4%
CCN(CC)CC(C)C(C)OC(=O)C(O)(c1ccccc1)c1ccccc1 (stereo unspecified)	inactive: -3.6%
COc1cc(SC)ccc1C(=O)NCC1(N(C)C)CCCCC1	inactive: -1.7%
Cc1ccc(C(=O)NCC2(N3CCCCC3)CCCCC2)cc1	inactive: -6.5%
